Measured values reported in patent US9845310B2 (priority 2015, dated 2017).

Protein sequences, listed by entry. Tags and fused reporters are not part of them. Lines headed by an entry give the natural chain unless they say otherwise; changes in a name come on top.
UniProt P35414: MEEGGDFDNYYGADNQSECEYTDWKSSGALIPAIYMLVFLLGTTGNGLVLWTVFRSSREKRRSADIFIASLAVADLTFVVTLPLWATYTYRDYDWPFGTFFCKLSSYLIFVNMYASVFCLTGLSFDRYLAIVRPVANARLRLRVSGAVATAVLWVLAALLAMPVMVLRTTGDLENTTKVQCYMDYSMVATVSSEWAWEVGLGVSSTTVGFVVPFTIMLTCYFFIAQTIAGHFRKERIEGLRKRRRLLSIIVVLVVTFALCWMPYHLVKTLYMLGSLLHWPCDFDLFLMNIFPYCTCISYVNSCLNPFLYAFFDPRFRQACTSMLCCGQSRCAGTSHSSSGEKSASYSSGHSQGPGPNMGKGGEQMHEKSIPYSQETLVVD

Tests used:
APJ [1] = target: T1, APJ (Homo sapiens (Human), UniProt P35414); experiment: [35S]GTPγS binding assay on membranes from CHO cells stably expressing human APJ receptor; type: biochemical; settings: Activity hAPJ SPA EC50 IP (μM)
[2] = tested on: naive Sprague Dawley rat hearts
heart failure rat model = type: in vivo
Experimental: Male Lewis rats (Charles River, USA) at 2-3 months of age were used for the study. […] APJ agonists were administered dose dependently acutely for a period of 30 min.

[3] = target: human APJ receptor expressed in the CHO cell line (Homo sapiens (Human), UniProt P35414); settings: different concentrations of AngII with fixed concentration of pyr apelin-13; human APJ receptor expressed alone in CHO cells
Experimental: (§1) The function of the inositol phosphate accumulation (IP1) was measured by Time-resolved fluorescence resonance energy (TR-FRET) at 620 nm and 665 nm respectively.

[4] = target: human APJ-AT1R (angiotensin Type 1) double stable CHO cell line (Homo sapiens (Human), UniProt P30556+P35414); settings: different concentrations of AngII with fixed concentration of pyr apelin-13; human APJ-AT1R double stable CHO cells
Experimental: as §1

APJ [5] = target: T1, APJ; settings: 2003 study, Medhurst et al.; cited from earlier work
APJ [6] = target: T1, APJ; settings: fold higher than apelin-36; cited from earlier work

Question: With `COc1cccc(OC)c1-n1c(NS(=O)(=O)[C@@H](C)[C@@H](O)c2ncc(C)cn2)nnc1-c1cncc(C)c1` (single isomer, unassigned) [Example 748.0] as the compound, how does the EC50 (APJ [1]) read?
Answer: Its EC50 is 0.0055 µM.

Question: For `COc1cccc(OC)c1-n1c(NS(=O)(=O)[C@@H](C)[C@H](OC)c2ncc(C)cn2)nnc1-c1cccnc1` [Example 173.0, (1R,2S)-N-(4-(2,6-dimethoxyphenyl)-5-(pyridin-3-yl)-4H-1,2,4-triazol-3-yl)-1-methoxy-1-(5-methylpyrimidin-2-yl)propane-2-sulfonamide], which “Isolated Heart Assay dP/dtmax(%)” value [2] is on record?
Answer: The value was 39%.

Question: And the “Isolated Heart Assay dP/dtmin(%)” value [2]?
Answer: Its value is 41.7%.

Question: And the “MI Rat Model dP/dtmax(%)” value (heart failure rat model; rat, in vivo)?
Answer: Its value is 14%.

Question: With `COc1cccc(OC)c1-n1c(NS(=O)(=O)[C@@H](C)[C@H](C)c2ncc(C)cn2)nnc1-c1cncc(C#N)c1` [Example 833.0, (2S,3R)-N-(5-(5-cyano-3-pyridinyl)-4-(2,6-dimethoxyphenyl)-4H-1,2,4-triazol-3-yl)-3-(5-methyl-2-pyrimidinyl)-2-butanesulfonamide] as the compound, how does the EC50 (APJ [1]) read?
Answer: The EC50 was 0.07 µM.

Question: What does the source list for pyr apelin-13?
Answer: positive cooperativity (IP1 accumulation) [3]: no positive cooperativity observed; positive cooperativity on AT1R (IP1 accumulation) [4]: induces the positive cooperativity on the AT1R

Question: Which results are given for `COc1cccc(OC)c1-n1c(NS(=O)(=O)[C@@H](C)[C@H](O)c2ncc(C)cn2)nnc1-c1cncc(C)c1` [Example 371.0, (1R,2S)-N-(4-(2,6-dimethoxyphenyl)-5-(5-methylpyridin-3-yl)-4H-1,2,4-triazol-3-yl)-1-hydroxy-1-(5-methylpyrimidin-2-yl)propane-2-sulfonamide]?
Answer: Isolated Heart Assay dP/dtmax(%) ([2]; ex vivo isolated perfused rat heart, contractility, percent change over vehicle): 19%; Isolated Heart Assay dP/dtmin(%) ([2]; ex vivo isolated perfused rat heart, relaxation (lusitropic), percent change over vehicle): 25%; MI Rat Model dP/dtmax(%) (heart failure rat model; in vivo heart failure (MI) rat, acute administration for 30 min): 15%

Question: With apelin-13 as the compound, how does the “in vitro activity compared among apelin-36, apelin-17 and apelin-13” value (APJ [5]) read?
Answer: The value was “approximately equipotent”.

Question: And the “in vitro affinity to the APJ receptor relative to apelin-36” value (APJ [6])?
Answer: Its value is ~3.5 fold.

Question: Which EC50 (APJ [1]) does the source give for `COc1cccc(OC)c1-n1c(NS(=O)(=O)[C@@H](C)[C@H](C)c2ncc(C)cn2)nnc1-c1cncc(C(=O)O)c1` [Example 834.0, 5-(4-(2,6-dimethoxyphenyl)-5-((((1S,2R)-1-methyl-2-(5-methyl-2-pyrimidinyl)propyl)sulfonyl)amino)-4H-1,2,4-triazol-3-yl)-3-pyridinecarboxylic acid] here?
Answer: The EC50 was 1.07 µM.

Read-outs that look alike come from different tables or passages of the source.
